Values quoted from earlier work in patent US20170354706A1, “HYBRID PROTEINACEOUS MOLECULE CAPABLE OF INHIBITING AT LEAST ONE ANTIBIOTIC AND PHARMACEUTICAL COMPOSITION CONTAINING IT” (priority 2014, published 2017).

Details: human, in vivo; cited from earlier work

Augmentin
Patients with acute diarrhoea induced by antibiotics: 10-25%
